Patent publication US20200010516A1

The chains behind the UniProt entries cited, without tags or fusion partners. Residues count along the entry.
UniProt P06756, 31-1048, chain 1 of 2: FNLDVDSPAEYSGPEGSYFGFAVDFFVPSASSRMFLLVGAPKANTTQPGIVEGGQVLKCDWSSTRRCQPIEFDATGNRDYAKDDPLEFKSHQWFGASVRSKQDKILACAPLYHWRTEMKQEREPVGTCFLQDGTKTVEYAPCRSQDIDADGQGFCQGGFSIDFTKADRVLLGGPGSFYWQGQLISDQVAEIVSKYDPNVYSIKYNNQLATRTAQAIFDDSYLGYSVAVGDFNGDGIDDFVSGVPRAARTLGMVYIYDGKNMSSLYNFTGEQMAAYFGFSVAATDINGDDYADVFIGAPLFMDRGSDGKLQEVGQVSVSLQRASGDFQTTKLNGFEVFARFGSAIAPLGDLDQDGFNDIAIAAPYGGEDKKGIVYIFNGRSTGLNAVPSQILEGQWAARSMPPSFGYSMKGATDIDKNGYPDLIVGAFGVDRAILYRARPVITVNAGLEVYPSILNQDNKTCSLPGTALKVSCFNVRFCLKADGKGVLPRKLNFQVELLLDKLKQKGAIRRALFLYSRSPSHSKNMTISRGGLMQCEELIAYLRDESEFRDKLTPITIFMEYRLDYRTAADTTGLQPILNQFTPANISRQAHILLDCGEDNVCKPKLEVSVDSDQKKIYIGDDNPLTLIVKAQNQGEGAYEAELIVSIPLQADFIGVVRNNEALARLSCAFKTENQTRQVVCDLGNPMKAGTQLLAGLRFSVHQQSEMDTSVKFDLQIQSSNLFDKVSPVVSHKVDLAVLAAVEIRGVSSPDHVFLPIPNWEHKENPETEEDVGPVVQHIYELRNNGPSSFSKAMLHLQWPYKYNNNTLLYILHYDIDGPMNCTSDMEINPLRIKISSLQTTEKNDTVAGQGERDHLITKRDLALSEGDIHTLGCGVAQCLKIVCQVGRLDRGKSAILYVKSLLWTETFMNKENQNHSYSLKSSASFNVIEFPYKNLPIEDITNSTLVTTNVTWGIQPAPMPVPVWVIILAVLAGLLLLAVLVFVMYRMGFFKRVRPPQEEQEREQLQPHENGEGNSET

Legend:
[1] = target: integrin αvβ5 on HT-29 cells (human) (UniProt P06756); assay: cell-based or functional assay
[2] = target: integrin αvβ6 on HT-29 cells (human) (UniProt P06756); assay: cell-based or functional assay

## ^39SRAGK-^46RIPRGDMP-^66RYH (Rho wild-type) (from UniProt P30403 408-475) (ligand)
[1]
  IC50, adhesion of HT-29 cells to vitronectin: 94.4 nM
[2]
  IC50, adhesion of HT-29 cells to fibronectin: 176 nM
